The assay addresses m5-HT1A (Mus musculus, UniProt Q64264). The assay is described as follows: biochemical.

Sequences of proteins named here, by UniProt entry; tags and fusion partners are left off.
UniProt Q64264, whole entry: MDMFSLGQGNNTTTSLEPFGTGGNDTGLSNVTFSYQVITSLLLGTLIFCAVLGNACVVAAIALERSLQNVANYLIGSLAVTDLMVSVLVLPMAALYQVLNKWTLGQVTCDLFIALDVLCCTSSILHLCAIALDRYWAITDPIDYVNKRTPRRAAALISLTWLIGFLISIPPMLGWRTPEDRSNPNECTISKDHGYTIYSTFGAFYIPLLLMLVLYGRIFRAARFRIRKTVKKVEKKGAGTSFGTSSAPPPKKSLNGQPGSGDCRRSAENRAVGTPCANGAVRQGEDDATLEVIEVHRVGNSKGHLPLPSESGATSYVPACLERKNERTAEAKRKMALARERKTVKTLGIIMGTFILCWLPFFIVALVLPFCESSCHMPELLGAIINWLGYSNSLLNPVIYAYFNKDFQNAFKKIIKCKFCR

Take `NCCc1c[nH]c2ccc(O)cc12` [5-HT, Serotonin]: the Ki is 0.3 to 7.9 nM.
